Protein sequences, listed by entry. Tags and fused reporters are not part of them.
UniProt P34969, whole entry: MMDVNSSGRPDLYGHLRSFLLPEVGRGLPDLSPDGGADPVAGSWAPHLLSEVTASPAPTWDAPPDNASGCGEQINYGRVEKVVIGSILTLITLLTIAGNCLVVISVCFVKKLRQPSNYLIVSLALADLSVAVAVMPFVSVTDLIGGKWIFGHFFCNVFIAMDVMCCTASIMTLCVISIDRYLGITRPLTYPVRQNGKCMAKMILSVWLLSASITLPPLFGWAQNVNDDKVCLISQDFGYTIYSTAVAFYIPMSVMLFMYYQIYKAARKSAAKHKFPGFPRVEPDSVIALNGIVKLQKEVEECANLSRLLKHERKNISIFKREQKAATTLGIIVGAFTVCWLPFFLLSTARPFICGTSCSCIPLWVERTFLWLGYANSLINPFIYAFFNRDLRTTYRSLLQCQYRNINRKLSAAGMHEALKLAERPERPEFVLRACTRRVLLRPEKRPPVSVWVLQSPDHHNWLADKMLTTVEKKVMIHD
UniProt P08908, whole entry: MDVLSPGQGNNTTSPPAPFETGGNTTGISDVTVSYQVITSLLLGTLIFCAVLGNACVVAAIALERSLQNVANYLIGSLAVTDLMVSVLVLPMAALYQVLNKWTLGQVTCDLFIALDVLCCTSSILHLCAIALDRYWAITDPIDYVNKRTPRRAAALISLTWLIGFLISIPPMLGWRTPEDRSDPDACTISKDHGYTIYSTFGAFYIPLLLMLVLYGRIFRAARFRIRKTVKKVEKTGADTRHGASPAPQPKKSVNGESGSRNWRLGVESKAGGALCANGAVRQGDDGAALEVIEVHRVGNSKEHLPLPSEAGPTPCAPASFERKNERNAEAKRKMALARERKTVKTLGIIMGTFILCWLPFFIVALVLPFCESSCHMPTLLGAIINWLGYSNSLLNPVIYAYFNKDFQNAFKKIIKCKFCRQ

According to BindingDB's records for doi:10.1111/cbdd.12394 (Jagiellonian University Medical College, 2015):

Tests used:
[1] = molecular target: 5-hydroxytryptamine receptor 7 (Homo sapiens, UniProt P34969); experiment: (§1) The composition of the assay buffers was as follows: for 5-HT1AR: 50 mM Tris HCl, 0.1 mM EDTA, 4 mM MgCl2, 10 µM pargyline, and 0.1% ascorbate; for 5-HT6R: 50 mM Tris HCl, 0.5 mM EDTA, and 4 mM MgCl2; and for 5-HT7bR: 50 mM Tris HCl, 4 mM MgCl2, 10 µM pargyline, and 0.1% ascorbate. All assays were incubated in a total volume of 200 µL in 96-well microtiter plates for 1 h at 37 °C, except for 5-HT1AR which were incubated at room temperature for 1 h. The process of equilibration is terminated by rapid filtration through Unifilter plates with a 96-well cell harvester, and radioactivity retained on the filters was quantified on a Microbeta plate reader.; conditions: 25 °C
[2] = molecular target: 5-hydroxytryptamine receptor 1A (Homo sapiens, UniProt P08908); experiment: as §1; conditions: 25 °C

Ki [1]: 23 nM
Ki [2]: < 1 nM
SMILES: COc1ccccc1N1CCN(CCCOc2cc(C)ccc2C)CC1 [1-[(2,5-dimethylphenoxy)propyl]-4-(2-methoxyphenyl)piperazine hydrochloride (2)]

Counter-ions that a name gives are not always drawn.
